Results taken from publication PMC9448382, “Fluorosulfate-containing pyrazole heterocycles as selective BuChE inhibitors: structure-activity relationship and biological evaluation for the treatment of Alzheimer’s disease” (Journal of Enzyme Inhibition and Medicinal Chemistry, 2022).

Amino acid sequences for entries named in this document (tags omitted). Residues count along the entry.
UniProt P06276, 29-602: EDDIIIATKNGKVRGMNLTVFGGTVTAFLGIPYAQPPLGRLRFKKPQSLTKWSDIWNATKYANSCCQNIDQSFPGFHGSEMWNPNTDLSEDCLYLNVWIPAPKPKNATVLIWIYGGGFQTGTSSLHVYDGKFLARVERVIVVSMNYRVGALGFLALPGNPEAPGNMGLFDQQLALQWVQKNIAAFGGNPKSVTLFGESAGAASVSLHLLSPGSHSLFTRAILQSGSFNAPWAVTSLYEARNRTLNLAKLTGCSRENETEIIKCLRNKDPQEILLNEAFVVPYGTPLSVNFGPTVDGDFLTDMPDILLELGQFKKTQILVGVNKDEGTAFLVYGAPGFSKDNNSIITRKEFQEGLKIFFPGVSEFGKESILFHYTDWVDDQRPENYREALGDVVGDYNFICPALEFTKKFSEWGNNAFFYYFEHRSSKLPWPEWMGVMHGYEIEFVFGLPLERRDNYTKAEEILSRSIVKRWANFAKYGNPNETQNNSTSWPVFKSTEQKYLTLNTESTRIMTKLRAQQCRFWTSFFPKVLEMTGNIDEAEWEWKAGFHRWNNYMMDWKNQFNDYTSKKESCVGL

Molecular target: T1, hBuChE from human serum (Homo sapiens, UniProt P06276)
T1 construct: purchased Sigma B4186; host or cells: human serum (per result head)
Assay: hBuChE inhibition assay
Type: biochemical
Settings: mean ± SEM

CCN(C)C(=O)Oc1cccc([C@H](C)N(C)C)c1 [Rivastigmine, reference compound]
IC50: 7.77 ± 2.92 µM
